# Apparent affinities of Ab-14 variants for a coronavirus HR2 peptide

Values reported by Engelhart et al. 2022, doi:10.1038/s41597-022-01779-4 (FLAb copy).

Target: peptide PDVDLGDISGINAS, taken from heptad repeat 2 (HR2) of SARS-CoV-2 spike.

Parent scFv Ab-14: VH joined to VL by the linker GGGGSGGGGSGGGGS. Changes lie in the light chain CDRs alone.
VH: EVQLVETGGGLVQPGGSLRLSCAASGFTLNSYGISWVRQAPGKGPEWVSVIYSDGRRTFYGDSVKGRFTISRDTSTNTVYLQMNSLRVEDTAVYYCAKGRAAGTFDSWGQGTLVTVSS
VL: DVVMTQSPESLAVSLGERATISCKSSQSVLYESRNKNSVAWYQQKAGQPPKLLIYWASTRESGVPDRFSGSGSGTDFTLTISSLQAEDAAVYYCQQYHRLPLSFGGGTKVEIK

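The library (AAYL50) carries one to three amino acid substitutions per variant, with no insertions or deletions. In AlphaSeq, yeast of one mating type display the scFv and yeast of the other type display the target. Mating (16 h, 30 °C) was followed by selection of diploids and sequencing of their barcodes. Scores were corrected for input abundance and mapped to Kd with protein pairs of known affinity run in the same pool. The assay was run in three technical replicates.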

Each variant's VL is given in full. Numbers give log10(Kd / nM), so 0 is 1 nM and 3 is 1 µM. Smaller is tighter. Averages over replicates are reported, and they cover detected replicates only. "nd" means that the variant was in the library but no mating with the target was seen in that replicate; the authors take this as a sign of poor binding, and no number exists. Order: sorted from the lowest average up, undetected variants last.

VL	replicates, log10 nM	mean log10 Kd (nM)
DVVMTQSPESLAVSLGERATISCKCSQSVIYESRNKNSVAWYQQKAGQPPKLLIYWASTREQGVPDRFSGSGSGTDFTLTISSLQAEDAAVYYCQQYHRLPLSFGGGTKVEIK	-0.24 0.51 0.07	0.11
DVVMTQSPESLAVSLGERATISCKSSESVLYASRNKNSVAWYQQKAGQPPKLLIYWASTRESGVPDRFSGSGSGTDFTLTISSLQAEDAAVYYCQQYHRLPLSFGGGTKVEIK	0.18 0.41 0.41	0.34
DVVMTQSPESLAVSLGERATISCKSSQSVLYESRNKSSVAWYQQKAGQPPKLLIYWADTRESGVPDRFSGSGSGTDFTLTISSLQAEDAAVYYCQQYHRLPLSFGGGTKVEIK	1.47 1.23 1.59	1.43
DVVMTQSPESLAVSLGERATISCKSSQSVLYESFNKNSVAWYQQKAGQPPKLLIYWASTCESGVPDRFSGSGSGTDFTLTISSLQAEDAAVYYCQQYHHLPLSFGGGTKVEIK	2.45 1.61 1.99	2.02
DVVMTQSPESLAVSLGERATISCKSSQSHLYESRFKNSVAWYQQKAGQPPKLLIYWASTREGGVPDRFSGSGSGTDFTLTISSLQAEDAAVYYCQQYHRLPLSFGGGTKVEIK	2.34 2.21 2.40	2.32
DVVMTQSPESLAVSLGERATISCKSSQSVLYESRPKNSVAWYQQKAGQPPKLLIYWASTRRSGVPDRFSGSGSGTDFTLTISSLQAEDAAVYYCQQYHRLWLSFGGGTKVEIK	nd nd 2.96	2.96
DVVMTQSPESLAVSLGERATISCKSSQSVLWESRNKNSVAWYQQKAGQPPKLLIYWASTRESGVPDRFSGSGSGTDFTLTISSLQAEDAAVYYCQQYHRLPLTFGGGTKVEIK	3.41 nd nd	3.41
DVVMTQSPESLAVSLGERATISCKSSQSVLYESRNKNRFAWYQQKAGQPPKLLIYWASTRESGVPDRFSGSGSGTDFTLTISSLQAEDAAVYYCQQYHRLPGSFGGGTKVEIK	3.95 nd 3.79	3.87

The remaining entries, values ahead:

replicates, log10 nM	mean log10 Kd (nM)	VL
nd 4.12 nd	4.12	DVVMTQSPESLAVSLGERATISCKSSQSVLYESRNKNSVAWYQQKAGQPPKLLIYWASTRESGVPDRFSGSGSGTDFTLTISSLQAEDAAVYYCQVYHKLPLSFGGGTKVEIK
nd 3.27 5.52	4.40	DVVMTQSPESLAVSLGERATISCKSSQSVLYESRNINSVAWYQQKAGQPPKLLIYWASTRESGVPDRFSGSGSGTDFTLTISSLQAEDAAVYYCQQYHRHSLSFGGGTKVEIK
5.00 nd 6.09	5.55	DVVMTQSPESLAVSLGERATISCKSSQSVLYVSRNKNSVAWYQQKAGQPPKLLIYWASTRESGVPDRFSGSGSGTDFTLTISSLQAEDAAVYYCQQYWRLYLSFGGGTKVEIK
nd nd nd	nd	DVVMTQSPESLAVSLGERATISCKSSQSVLYESRVKNSVAWYQQKAGQPPKLLIYWASTRPSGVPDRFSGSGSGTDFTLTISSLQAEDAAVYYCQQYHGLPLSFGGGTKVEIK
nd nd nd	nd	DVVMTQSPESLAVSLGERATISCKSSQSVLYESRNKNSVRWYQQKAGQPPKLLIYWASTRESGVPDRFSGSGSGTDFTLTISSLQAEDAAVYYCQQCHRLPASFGGGTKVEIK
nd nd nd	nd	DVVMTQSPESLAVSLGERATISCCSSQSVLYESRWKNSFAWYQQKAGQPPKLLIYWASTRESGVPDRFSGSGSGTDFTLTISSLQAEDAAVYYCQQYHRLPLSFGGGTKVEIK
nd nd nd	nd	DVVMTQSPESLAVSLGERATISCKSSQSVLYESRNKNSVAWYQQKAGQPPKLLIYWASNRESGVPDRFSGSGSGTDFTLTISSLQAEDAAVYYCQLYCRLPLSFGGGTKVEIK
nd nd nd	nd	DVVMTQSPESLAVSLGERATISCKSSQSVLYHSRNKPSVNWYQQKAGQPPKLLIYWASTRESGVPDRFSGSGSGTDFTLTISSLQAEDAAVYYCQQYHRLPLSFGGGTKVEIK
nd nd nd	nd	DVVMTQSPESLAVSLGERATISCKSSQSVLYESRNINSVAWYQQKAGQPPKLLIYWFATRESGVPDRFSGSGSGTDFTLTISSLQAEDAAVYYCQQYHRLPLSFGGGTKVEIK

2 of these entries, quoted again:

VL	replicates, log10 nM	mean log10 Kd (nM)
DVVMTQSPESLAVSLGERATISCKSSQSHLYESRFKNSVAWYQQKAGQPPKLLIYWASTREGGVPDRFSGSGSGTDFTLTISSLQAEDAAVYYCQQYHRLPLSFGGGTKVEIK	2.34 2.21 2.40	2.32
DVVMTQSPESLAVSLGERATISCKSSQSVLWESRNKNSVAWYQQKAGQPPKLLIYWASTRESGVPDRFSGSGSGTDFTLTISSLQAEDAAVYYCQQYHRLPLTFGGGTKVEIK	3.41 nd nd	3.41

In this assay the parent's reference entry averaged 0.65; its copy inside this library read 1.68. Nonspecific signal, from three strains lacking the peptide, appeared in 18% of pairings of library AAYL50, centred on 4.19 (5% of these signals below 2.99); values are not corrected for it.